Source: the Kinase Knowledgebase extract (Sharma et al. 2016)
Several values for one entry are separate records, joined by “and”; a condition that tells them apart may be missing. Equal values may be shown once.

The chains behind the UniProt entries cited, without tags or fusion partners. Where a name states a change or a piece, a line headed by the entry shows the natural chain unless it says otherwise.
UniProt P42338: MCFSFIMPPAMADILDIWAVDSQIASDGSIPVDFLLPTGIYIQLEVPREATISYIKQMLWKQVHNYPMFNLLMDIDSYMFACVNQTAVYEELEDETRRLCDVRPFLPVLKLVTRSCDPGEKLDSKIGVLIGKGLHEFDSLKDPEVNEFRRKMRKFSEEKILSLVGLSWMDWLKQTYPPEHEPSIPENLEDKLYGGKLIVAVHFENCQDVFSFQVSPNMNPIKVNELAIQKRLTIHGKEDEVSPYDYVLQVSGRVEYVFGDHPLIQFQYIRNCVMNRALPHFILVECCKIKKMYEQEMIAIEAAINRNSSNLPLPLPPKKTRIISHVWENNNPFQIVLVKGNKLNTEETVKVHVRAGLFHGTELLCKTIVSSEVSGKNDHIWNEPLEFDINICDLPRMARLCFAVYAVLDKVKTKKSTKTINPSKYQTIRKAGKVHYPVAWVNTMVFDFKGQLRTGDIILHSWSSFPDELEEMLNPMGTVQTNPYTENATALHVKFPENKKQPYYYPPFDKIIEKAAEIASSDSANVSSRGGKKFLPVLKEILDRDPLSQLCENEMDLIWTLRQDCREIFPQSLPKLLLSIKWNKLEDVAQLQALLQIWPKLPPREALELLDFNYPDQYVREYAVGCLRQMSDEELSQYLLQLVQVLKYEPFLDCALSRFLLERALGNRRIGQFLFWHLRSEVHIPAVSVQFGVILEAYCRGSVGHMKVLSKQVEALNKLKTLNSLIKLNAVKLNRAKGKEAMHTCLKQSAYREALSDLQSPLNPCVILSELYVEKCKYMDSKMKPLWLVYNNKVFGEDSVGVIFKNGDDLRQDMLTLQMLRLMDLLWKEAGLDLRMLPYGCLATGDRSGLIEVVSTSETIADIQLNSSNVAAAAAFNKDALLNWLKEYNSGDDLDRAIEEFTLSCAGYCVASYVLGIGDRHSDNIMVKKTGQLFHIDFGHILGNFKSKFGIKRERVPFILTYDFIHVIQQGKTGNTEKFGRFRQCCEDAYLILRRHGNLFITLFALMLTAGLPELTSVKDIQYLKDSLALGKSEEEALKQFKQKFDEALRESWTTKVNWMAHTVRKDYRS

Molecular target: PIK3CB (Human) (UniProt P42338)
Assay: Inhibition of PIK3CB Kinase Activity

SMILES: Cc1cc(C(C)Nc2ccccc2)c2nc(N3CCOCC3)cc(=O)n2c1 (stereo unspecified)
- IC50: 7 nM and 10 nM
